# Source: patent US20160038571A1
# Target: calcineurin (CNA/B) (UniProt Q08209)
# Experiment: ITC
substance,measurement,value
RCAN1^128-164 with PSVVVH (SEQ ID NO: 13) mutated to PVIVIT (SEQ ID NO: 19) (peptide),Kd,150 nM
same,fold increase in affinity (against RCAN1^128-164),2 fold
